# Patent US5807742A, “Neurokinin receptor cell lines” (Merrell Pharmaceuticals Inc., priority 1996, dated 1998)
# Sequences of proteins named here, by UniProt entry; tags and fusion partners are left off.
# UniProt P05363, whole entry: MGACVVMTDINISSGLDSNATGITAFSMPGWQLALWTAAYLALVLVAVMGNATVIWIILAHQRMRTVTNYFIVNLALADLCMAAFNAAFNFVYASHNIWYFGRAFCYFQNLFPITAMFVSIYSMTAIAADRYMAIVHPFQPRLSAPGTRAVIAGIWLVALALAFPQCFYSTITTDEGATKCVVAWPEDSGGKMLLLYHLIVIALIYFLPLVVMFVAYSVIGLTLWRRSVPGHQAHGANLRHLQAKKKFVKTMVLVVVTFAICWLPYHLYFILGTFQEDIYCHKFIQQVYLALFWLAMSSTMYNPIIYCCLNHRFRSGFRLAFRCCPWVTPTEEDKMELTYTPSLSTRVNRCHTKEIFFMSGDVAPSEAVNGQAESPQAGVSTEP
# UniProt P51144, whole entry: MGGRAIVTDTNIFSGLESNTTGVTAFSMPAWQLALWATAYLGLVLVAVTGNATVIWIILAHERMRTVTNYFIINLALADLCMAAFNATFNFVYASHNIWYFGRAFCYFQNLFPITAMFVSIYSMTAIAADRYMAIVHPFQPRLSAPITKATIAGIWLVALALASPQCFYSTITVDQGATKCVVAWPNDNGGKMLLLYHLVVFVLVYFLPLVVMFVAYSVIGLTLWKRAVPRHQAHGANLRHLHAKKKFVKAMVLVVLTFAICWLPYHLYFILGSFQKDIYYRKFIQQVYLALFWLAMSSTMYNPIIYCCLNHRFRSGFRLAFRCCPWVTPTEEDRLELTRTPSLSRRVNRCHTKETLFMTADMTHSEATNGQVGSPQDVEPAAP
# What was measured:
# neurokinin A receptor = neurokinin A receptor (Bos taurus, UniProt P05363); assay: [125I]NKA receptor binding (saturation/Scatchard and competition) in B82 cells transfected with pSKR56S cDNA (SKLKB82#n); design: species or system bovine; conditions: SKLKB82#3 cells; FIG. 4
# [1] = target: NKA receptor (hamster urinary bladder) (Mesocricetus auratus, UniProt P51144); assay: [125I]NKA receptor binding in hamster urinary bladder membranes (standard control); conditions: FIG. 4
smiles,measurement,setting,value
CCCC[C@H](NC(=O)[C@H](CC(C)C)NC(=O)CNC(=O)[C@@H](NC(=O)[C@H](Cc1ccccc1)NC(=O)[C@H](CO)NC(=O)[C@@H](N)CC(=O)O)C(C)C)C(N)=O,"potency rank-order, inhibition of [125I]NKA receptor binding (KI)",neurokinin A receptor,"followed by Nle^10 NKA (4-10), substance P, and senktide"
same,"potency rank-order, inhibition of [125I]NKA receptor binding (KI)",[1],"followed by Nle^10 NKA (4-10), substance P, and senktide"
